This passage reports Activity results from ChEMBL document CHEMBL1132964, “Selective ET(A) antagonists. 5. Discovery and structure-activity relationships of phenoxyphenylacetic acid derivatives” (J Med Chem, 2000).

“And” between values parts separate entries of the source, which are not always exact repeats. Equal values may be shown once.

In assay [1] the test system is Endothelin receptor type A (Rattus norvegicus). Description: Inhibition of Endothelin A receptor in pithed rats 1.5 hour after oral administration at 75 uM/kg.
The test system is the same in assay [2]. Description: Inhibition of Endothelin A receptor in pithed rats 3 hour after oral administration at 75 umol/kg.
Assay [3] shares this test system. Description: Activity against Endothelin A receptor in pithed rats after intravenous administration at 25 umol/kg.

`Cc1ccccc1[C@H](Oc1cc(OCc2ccncc2)ccc1C#N)C(=O)O`: the Activity in assay [1] amounted to 5.9 µM/kg; in assay [2], 7.7 µM/kg; in assay [3], 90 µM/kg.
In the case of `Cc1ccccc1C(Oc1cc(OCc2ccsc2)ccc1C#N)C(=O)O` (stereo not drawn), in assay [3], the Activity is 19 µM/kg.
The compound `N#Cc1ccc(OCc2ccsc2)cc1OC(C(=O)O)c1ccccc1` (stereo not drawn) came in with an Activity in assay [3] of 4.45 µM/kg.
For `Cc1ccccc1C(Oc1cc(OCc2ccncc2)ccc1C#N)C(=O)O` (stereo not drawn), the Activity in assay [1] is 9 µM/kg and 8 µM/kg; in assay [2], 13 µM/kg; in assay [3], 85 µM/kg and 49 µM/kg.
